By UniProt entry, the sequences of proteins in these tests, tags left out. Residues count along the entry.
UniProt Q13547, whole entry: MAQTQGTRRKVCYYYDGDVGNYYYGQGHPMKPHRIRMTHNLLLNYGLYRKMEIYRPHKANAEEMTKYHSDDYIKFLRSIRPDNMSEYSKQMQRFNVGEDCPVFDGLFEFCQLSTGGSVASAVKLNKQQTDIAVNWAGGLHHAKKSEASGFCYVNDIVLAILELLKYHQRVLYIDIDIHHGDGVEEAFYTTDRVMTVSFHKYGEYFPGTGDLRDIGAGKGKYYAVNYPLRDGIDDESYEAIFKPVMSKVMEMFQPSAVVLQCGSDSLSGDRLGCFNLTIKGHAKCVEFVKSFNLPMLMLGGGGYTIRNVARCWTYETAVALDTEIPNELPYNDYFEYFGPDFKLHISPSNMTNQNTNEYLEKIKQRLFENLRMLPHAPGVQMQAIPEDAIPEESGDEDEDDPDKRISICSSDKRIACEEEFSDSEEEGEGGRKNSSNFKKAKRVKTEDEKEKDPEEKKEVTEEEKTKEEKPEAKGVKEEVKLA
UniProt Q8WUI4, whole entry: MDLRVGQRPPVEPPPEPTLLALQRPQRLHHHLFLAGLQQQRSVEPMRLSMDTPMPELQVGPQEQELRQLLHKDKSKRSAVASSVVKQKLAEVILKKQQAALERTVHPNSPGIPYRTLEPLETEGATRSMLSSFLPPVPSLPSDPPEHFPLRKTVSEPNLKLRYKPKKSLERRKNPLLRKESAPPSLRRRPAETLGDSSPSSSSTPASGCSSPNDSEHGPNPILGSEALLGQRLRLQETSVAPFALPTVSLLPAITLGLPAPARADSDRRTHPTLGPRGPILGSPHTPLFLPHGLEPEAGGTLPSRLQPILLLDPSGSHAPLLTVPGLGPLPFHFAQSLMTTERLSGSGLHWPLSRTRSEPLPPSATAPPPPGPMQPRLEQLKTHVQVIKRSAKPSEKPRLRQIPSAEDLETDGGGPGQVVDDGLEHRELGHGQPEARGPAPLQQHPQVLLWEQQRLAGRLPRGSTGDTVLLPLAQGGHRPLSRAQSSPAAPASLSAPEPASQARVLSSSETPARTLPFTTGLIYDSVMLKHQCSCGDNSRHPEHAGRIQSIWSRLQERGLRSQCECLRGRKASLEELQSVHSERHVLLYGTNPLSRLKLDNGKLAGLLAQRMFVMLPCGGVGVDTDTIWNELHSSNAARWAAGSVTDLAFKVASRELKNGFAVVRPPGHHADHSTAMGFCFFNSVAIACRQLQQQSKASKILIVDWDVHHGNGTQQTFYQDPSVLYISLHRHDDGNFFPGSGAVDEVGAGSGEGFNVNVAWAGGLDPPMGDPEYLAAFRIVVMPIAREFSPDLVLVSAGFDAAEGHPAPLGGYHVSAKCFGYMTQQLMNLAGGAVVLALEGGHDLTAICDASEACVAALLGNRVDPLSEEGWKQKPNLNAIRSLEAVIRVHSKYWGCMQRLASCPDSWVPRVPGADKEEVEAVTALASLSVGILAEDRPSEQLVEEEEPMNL
UniProt P56524, whole entry: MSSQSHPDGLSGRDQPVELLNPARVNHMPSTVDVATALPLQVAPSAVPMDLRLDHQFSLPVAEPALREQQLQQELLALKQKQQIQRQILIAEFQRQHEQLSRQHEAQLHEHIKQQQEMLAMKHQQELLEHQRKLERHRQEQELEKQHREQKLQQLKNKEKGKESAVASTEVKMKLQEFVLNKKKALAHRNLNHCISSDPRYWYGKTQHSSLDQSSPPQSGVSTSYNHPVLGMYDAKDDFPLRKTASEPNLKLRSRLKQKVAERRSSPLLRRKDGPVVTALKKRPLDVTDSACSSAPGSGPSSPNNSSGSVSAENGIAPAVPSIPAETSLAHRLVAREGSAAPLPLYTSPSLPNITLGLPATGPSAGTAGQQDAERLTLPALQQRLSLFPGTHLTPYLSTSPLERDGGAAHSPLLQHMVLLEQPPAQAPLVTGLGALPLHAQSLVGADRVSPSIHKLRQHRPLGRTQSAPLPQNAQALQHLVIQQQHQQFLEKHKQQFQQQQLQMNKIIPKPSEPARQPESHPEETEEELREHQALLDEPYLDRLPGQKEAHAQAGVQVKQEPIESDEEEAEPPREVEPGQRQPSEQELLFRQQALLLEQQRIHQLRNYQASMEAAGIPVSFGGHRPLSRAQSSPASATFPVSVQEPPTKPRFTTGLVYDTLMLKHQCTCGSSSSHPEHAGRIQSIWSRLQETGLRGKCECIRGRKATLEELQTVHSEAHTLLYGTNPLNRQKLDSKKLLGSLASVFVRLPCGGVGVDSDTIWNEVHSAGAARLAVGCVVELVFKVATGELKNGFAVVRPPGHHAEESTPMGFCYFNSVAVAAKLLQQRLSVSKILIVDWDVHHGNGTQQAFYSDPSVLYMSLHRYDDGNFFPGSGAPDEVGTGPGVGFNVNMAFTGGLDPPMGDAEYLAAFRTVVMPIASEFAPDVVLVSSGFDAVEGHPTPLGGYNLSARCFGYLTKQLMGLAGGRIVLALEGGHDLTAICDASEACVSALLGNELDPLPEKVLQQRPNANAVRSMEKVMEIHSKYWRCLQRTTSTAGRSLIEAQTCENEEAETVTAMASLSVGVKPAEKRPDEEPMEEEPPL
UniProt Q9BY41, whole entry: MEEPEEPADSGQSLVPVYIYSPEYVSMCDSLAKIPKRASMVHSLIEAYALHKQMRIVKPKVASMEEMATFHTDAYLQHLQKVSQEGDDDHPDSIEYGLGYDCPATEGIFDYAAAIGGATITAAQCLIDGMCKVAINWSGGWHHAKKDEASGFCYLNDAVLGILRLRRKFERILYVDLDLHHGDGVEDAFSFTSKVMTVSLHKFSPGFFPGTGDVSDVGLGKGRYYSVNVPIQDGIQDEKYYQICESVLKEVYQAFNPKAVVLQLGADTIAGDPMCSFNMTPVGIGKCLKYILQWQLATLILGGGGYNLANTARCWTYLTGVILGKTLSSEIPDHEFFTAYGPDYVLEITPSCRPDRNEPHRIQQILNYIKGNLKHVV
UniProt Q9UBN7, whole entry: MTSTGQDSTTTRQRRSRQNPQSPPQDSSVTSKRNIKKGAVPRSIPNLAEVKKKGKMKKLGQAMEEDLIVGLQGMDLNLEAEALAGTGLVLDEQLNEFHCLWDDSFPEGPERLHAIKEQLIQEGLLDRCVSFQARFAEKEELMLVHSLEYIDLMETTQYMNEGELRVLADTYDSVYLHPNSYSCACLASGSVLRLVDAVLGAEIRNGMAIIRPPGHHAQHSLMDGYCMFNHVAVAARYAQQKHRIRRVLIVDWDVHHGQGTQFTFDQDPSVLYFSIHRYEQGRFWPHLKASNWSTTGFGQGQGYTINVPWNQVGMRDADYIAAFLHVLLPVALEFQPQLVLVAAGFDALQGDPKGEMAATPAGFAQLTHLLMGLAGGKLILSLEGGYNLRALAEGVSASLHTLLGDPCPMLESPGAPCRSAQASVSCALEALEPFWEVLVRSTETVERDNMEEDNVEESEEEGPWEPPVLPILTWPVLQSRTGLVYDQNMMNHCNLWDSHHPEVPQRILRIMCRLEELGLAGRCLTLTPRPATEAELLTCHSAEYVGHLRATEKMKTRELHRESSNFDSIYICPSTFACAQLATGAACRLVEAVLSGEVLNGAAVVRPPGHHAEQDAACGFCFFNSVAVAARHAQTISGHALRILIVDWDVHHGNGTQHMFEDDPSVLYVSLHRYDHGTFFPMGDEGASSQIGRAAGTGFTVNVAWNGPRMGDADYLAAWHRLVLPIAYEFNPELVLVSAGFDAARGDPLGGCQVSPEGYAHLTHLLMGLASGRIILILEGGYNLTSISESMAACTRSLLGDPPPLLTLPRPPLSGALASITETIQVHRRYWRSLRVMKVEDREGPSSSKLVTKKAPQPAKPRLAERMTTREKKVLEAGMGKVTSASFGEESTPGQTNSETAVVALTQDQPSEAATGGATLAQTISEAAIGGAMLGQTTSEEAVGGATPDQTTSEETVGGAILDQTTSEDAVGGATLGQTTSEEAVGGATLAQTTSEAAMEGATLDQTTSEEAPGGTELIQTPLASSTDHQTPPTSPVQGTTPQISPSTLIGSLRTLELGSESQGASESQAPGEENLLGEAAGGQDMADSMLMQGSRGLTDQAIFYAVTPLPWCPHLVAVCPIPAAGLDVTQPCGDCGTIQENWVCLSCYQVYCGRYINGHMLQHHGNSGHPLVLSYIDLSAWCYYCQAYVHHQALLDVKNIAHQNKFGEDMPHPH
UniProt Q969S8, whole entry: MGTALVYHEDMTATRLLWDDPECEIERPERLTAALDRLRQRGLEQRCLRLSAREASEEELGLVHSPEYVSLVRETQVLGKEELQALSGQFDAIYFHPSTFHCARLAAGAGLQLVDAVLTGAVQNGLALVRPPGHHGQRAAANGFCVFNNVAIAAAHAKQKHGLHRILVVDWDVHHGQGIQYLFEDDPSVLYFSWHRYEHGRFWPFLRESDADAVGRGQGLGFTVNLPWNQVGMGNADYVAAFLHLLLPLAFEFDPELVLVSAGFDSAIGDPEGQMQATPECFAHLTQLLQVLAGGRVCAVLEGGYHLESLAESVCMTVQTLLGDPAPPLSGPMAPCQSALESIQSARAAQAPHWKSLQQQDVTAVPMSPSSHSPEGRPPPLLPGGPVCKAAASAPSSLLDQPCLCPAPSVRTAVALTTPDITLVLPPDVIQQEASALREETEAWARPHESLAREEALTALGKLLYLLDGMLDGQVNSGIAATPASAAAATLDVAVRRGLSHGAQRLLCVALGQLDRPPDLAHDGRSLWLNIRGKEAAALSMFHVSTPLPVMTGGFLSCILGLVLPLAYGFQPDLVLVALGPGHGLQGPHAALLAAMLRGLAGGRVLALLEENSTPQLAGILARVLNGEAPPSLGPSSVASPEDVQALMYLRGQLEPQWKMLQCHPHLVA
UniProt O15379, whole entry: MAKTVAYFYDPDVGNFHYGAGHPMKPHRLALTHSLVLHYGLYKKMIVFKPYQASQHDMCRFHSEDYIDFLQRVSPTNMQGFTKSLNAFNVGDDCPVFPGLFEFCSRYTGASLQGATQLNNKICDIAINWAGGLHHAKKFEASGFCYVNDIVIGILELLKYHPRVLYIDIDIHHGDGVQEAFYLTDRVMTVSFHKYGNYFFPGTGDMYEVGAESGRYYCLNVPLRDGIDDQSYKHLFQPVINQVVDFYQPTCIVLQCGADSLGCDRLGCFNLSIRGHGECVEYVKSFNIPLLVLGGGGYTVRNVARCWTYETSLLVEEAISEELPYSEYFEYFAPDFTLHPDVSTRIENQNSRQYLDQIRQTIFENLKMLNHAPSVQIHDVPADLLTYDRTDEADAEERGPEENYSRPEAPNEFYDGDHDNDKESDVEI
UniProt Q92769, whole entry: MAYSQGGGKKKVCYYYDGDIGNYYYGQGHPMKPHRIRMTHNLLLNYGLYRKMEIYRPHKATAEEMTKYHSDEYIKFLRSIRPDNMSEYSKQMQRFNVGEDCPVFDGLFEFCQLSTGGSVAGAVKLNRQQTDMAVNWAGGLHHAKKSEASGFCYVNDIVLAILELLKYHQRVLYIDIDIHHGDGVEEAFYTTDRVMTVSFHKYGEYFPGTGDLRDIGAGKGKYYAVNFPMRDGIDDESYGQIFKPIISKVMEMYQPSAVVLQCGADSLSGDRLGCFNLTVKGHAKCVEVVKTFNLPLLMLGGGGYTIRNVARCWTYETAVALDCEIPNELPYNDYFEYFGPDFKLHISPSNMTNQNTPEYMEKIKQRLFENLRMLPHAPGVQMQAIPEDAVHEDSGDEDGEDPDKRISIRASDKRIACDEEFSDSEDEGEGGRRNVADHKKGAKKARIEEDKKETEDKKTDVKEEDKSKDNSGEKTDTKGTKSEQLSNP
UniProt Q96DB2, whole entry: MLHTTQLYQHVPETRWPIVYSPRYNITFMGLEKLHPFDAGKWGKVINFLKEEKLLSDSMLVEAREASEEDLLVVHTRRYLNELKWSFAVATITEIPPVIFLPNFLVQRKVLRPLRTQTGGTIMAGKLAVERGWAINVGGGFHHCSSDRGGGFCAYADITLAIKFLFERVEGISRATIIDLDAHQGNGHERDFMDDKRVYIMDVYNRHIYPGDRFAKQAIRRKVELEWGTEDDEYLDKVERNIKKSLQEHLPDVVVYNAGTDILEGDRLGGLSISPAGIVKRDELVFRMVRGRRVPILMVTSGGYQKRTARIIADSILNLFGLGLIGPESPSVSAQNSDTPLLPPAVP
UniProt Q9Y618, 395-489 partner limits assumed: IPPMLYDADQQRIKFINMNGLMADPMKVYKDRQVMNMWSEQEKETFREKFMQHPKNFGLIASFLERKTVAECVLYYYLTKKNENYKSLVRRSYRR

In patent US10508088B2, “Methods using HDAC11 inhibitors” (FORMA Therapeutics, Inc., priority 2016, dated 2019):

Columns and labels:
HDAC1 = HDAC1 (Homo sapiens (Human), UniProt Q13547); test: HDAC inhibition assay, electrophoretic mobility shift (Nanosyn); conditions: read-out: HDAC Biochemical IC50 HDAC1
HDAC7 = HDAC7 (Homo sapiens (Human), UniProt Q8WUI4); test: as above; conditions: read-out: HDAC Biochemical IC50 HDAC7
HDAC4 = HDAC4 (Homo sapiens (Human), UniProt P56524); test: as above; conditions: read-out: HDAC Biochemical IC50 HDAC4
HDAC8 = HDAC8 (Homo sapiens (Human), UniProt Q9BY41); test: as above; conditions: read-out: HDAC Biochemical IC50 HDAC8
HDAC6 = HDAC6 (Homo sapiens (Human), UniProt Q9UBN7); test: as above; conditions: read-out: HDAC Biochemical IC50 HDAC6
HDAC10 = HDAC10 (Homo sapiens (Human), UniProt Q969S8); test: as above; conditions: read-out: HDAC Biochemical IC50 HDAC10
HDAC5 = HDAC5 (Homo sapiens (Human), UniProt Q9UQL6); test: as above; conditions: read-out: HDAC Biochemical IC50 HDAC5
[1] = biological target: HDAC3 co-expressed with nuclear receptor corepressor (Ncor2) (Homo sapiens (Human), UniProt O15379); test: as above; conditions: read-out: HDAC Biochemical IC50 HDAC3
HDAC9 = HDAC9 (Homo sapiens (Human), UniProt Q9UKV0); test: as above; conditions: read-out: HDAC Biochemical IC50 HDAC9
HDAC2 = HDAC2 (Homo sapiens (Human), UniProt Q92769); test: as above; conditions: read-out: HDAC Biochemical IC50 HDAC2
HDAC11 = HDAC11 (Homo sapiens (Human), UniProt Q96DB2); test: as above; assay type: biochemical; conditions: for IC50: read-out: HDAC Biochemical IC50 HDAC11
HEL 92.1.7 cells [2] = test: Cell proliferation assay (CCK8); conditions: HEL 92.1.7, 48 h
[3] = system: Sox2, Gli1, Yap1 mRNA in A549 cells; test: QRT-PCR assay for stem cell transcription factors; conditions: A549, 72 hours
[4] = system: Sox2, Gli1, Yap1 mRNA in H1650 cells; test: QRT-PCR assay for stem cell transcription factors; conditions: H1650, 72 hours
A549 cells = test: Cell proliferation assay with combination treatment (MTT); conditions: A549, combination with GDC-0449 (Vismodegib) or BMS-833923, 96 hours
NCI-H2170 cells = test: as above; conditions: H2170, combination with GDC-0449 (Vismodegib) or BMS-833923, 96 hours
H1650 SP cells = test: Tube formation assay with stem-like side population NSCLC cells; conditions: H1650 SP cells on Matrigel
[5] = system: H1650 side population stem-like cells (EGFR mutation); test: Sphere formation assay with stem-like side population NSCLC cells; conditions: H1650 SP cells, 0.5-5.0 μM, Day 10
[6] = system: A549 side population stem-like cells (KRAS mutation); test: as above; conditions: A549 SP cells, 0.5-5.0 μM, Day 10
[7] = system: H1650 cells co-cultured with primary CAFs; test: Co-culture assay with cancer cells and cancer associated fibroblasts; conditions: 1:1 co-culture
[8] = system: primary CAFs from human lung cancer; test: as above; conditions: 1:1 co-culture with H1650
HEL 92.1.7 cells [9] = test: Cell cycle assay by flow cytometry; conditions: HEL 92.1.7, 12 hours of treatment at 10 μM
SET-2 cells = test: Cell proliferation assay (CCK8); conditions: Ruxolitinib-resistant SET-2

Structure (SMILES) | IC50 (HDAC1) | IC50 (HDAC7) | IC50 (HDAC4) | IC50 (HDAC8) | IC50 (HDAC6) | IC50 (HDAC10) | IC50 (HDAC5) | IC50 [1] | IC50 (HDAC9) | IC50 (HDAC2) | IC50 (HDAC11) | growth of the HEL 92.1.7 cell line (HEL 92.1.7 cells [2]) | expression of Gli1 and Yap1 [3] | expression of Sox2 [3] | expression of Gli1 and Yap1 [4] | expression of Sox2 [4] | cell viability, combination with the Smoothened inhibitors (A549 cells) | cell viability, combination with the Smoothened inhibitors (NCI-H2170 cells) | tubule formation (H1650 SP cells) | growth of stem-like cancer cells (sphere formation) [5] | also measured
O=C(NO)c1cccc2c1CC1(CC2)CCN(Cc2ccc(Cl)cc2)C1=O (centres unmarked) [II-69, 1′-(4-chlorobenzyl)-N-hydroxy-2′-oxo-3,4-dihydro-1H-spiro[naphthalene-2,3′-pyrrolidine]-8-carboxamide] | > 10 µM | > 10 µM | > 10 µM | > 10 µM | > 10 µM | > 10 µM | > 10 µM | > 10 µM | > 10 µM | > 10 µM | > 10 µM | did not | – | – | – | – | – | – | – | – | –
CC1(C)c2cccc(C(=O)NO)c2CN1c1nc2ccc(C(F)(F)F)cc2[nH]1 | – | – | – | – | – | – | – | – | – | – | – | – | decreased expression | decreased expression | decreased expression | decreased expression | decreased cell viability | decreased cell viability | – | – | selectivity over HDACs 1-10 (HDAC11; HDAC11 versus HDACs 1-10): > 1800 fold
O=C(NO)c1cccc2c1CC1(CC2)CCN(c2cccc(C(F)(F)F)c2)C1=O (centres unmarked) [II-72, N-hydroxy-2′-oxo-1′-(3-(trifluoromethyl)phenyl)-3,4-dihydro-1H-spiro[naphthalene-2,3′-pyrrolidine]-8-carboxamide] | > 10 µM | > 10 µM | > 10 µM | > 10 µM | > 10 µM | > 10 µM | > 10 µM | > 10 µM | > 10 µM | > 10 µM | > 10 µM | – | – | – | – | – | – | – | did not | did not | growth of stem-like cancer cells (sphere formation) [6]: did not
CC1(C)c2cccc(C(=O)NO)c2CN1c1cnc(C(F)(F)F)cn1 | – | – | – | – | – | – | – | – | – | – | – | inhibited the growth | decreased expression | decreased expression | decreased expression | decreased expression | decreased cell viability | decreased cell viability | inhibited tubule formation | prevented growth | growth of H1650 cells co-cultured with primary CAFs [7]: inhibit the growth; effects on CAFs [8]: minimal effects; cell cycle effect (HEL 92.1.7 cells [9]): induced G1 cell cycle arrest; growth of stem-like cancer cells (sphere formation) [6]: prevented growth; growth of SET-2 cell line generated to be Ruxolitinib-resistant (SET-2 cells): inhibited the growth
